From patent publication US20170050044A1, “Integumentary System Therapy” (priority 2015, published 2017) come the findings set out here.

SMILES strings stand for the structures. Where two headings read alike, the source gives them in different places.

This data set has as its system skin of a human volunteer. As to conditions: 1 mA for 80 min.

Turning to `CN(C)c1ccc2nc3ccc(=[N+](C)C)cc-3sc2c1` [methylene blue], the “skin colour at delivery electrode location after washing” value is, setting by setting: (Example 10, with about 1 to 5% surfactant, upper arm) “markedly blue throughout”; (Example 12, brushed site, with surfactant) “markedly blue throughout”.
